Measurements: ChEMBL document CHEMBL1152764, “Penicilliols A and B, novel inhibitors specific to mammalian Y-family DNA polymerases” (Bioorg Med Chem, 2009)

Test system: Oryza sativa
Test: Inhibition of rice DNA polymerase lambda at 100 uM

Activity: inactive
SMILES: COC1=C(C(=O)CC(C)O)C(=O)C(C)(/C=C/C=C/C(C)O)O1 (stereo unspecified)

The source made the active and inactive calls. No cut-off for these calls is given here.
